Experiments:
[1] = test system: Kit225 Interferon Regulatory Factor 1 (IRF1)-driven reporter cell line; test: Kit225 IRF1-driven reporter cell line assay; type: cell-based; conditions: read-out: average half-maximal effective concentration (EC50)
Tregs in CD4+ T cells = conditions: SLE patients, 1 MIU SC every other day for 2 weeks, then 2-week treatment free; cited from earlier work

recombinant IL-2: recombinant (human) IL-2 used as comparator; rhIL-2 in clinical SLE study [reference compound]
EC50 [1]: 0.027 nM
trough Δ% Tregs in CD4+ T cells (Tregs in CD4+ T cells): 1%
